# Measurements taken from US9868746B2, “Substituted 5-aminothieno[2,3-C]pyridazine-6-carboxamide analogs as positive allosteric modulators of the muscarinic acetylcholine receptor M4” (Vanderbilt University, priority 2012, dated 2018).
# Chains of the proteins cited; added tags and fusions are not shown.
# UniProt P08173, whole entry, looked up: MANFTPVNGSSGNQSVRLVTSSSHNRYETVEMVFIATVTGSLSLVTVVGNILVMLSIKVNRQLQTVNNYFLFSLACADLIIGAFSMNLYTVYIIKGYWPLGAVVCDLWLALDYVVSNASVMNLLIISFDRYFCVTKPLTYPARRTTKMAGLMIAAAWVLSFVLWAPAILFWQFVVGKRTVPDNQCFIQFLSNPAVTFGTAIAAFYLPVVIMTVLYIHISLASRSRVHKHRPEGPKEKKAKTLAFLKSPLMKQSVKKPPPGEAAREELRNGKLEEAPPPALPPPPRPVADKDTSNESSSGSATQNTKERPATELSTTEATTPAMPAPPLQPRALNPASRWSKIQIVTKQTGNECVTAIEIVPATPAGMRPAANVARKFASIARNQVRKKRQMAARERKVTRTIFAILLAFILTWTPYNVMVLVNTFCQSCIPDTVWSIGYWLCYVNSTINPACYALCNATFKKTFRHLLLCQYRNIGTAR
# Target: mAChR M4 (Homo sapiens, UniProt P08173)
# Assay: mAChR M4 cell-based functional assay (calcium mobilization, potentiation of EC20 acetylcholine response)
compound,measurement,setting,value
Cc1nnc2sc(C(=O)NC3CN(C(=O)Oc4cccnc4)C3)c(N)c2c1C,Emax (%)*,% ACh maximum at 30 μM,66%
same,EC50,"mAChR M4 cell-based functional assay, >10,000 estimated for low potency compounds without plateau",0.038 µM
